Experimental data taken from ChEMBL document CHEMBL3785033, “Disrupting Acetyl-Lysine Recognition: Progress in the Development of Bromodomain Inhibitors” (J Med Chem, 2016).

Molecular target: Nucleosome-remodeling factor subunit BPTF (Homo sapiens, UniProt Q12830)
Assay: Binding affinity to BPTF (unknown origin) by isothermal titration calorimetric analysis

Structure (SMILES): COC(=O)c1cccc(NC(=O)NC2CCN(c3ccnc(Nc4ccc(F)cc4)n3)C2)c1 (stereo unspecified)
- Kd: 2800 nM
